Measurements published in publication PMC11443494, “Dynamical responses predict a distal site that modulates activity in an antibiotic resistance enzyme” (Chemical Science, 2024).
Where two headings read alike, the source gives them in different places.

Chains of the proteins cited; added tags and fusions are not shown. Residues count along the entry.
UniProt Q9F663, 25-293 limits assumed: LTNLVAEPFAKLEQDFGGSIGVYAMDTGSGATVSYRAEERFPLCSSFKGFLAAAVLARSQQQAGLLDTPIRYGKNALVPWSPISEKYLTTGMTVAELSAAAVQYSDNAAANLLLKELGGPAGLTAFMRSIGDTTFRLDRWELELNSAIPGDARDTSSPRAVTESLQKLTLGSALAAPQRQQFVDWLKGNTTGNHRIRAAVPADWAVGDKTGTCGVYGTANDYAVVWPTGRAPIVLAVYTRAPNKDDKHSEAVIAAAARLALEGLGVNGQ
UniProt Q9F663, 25-293 G88D: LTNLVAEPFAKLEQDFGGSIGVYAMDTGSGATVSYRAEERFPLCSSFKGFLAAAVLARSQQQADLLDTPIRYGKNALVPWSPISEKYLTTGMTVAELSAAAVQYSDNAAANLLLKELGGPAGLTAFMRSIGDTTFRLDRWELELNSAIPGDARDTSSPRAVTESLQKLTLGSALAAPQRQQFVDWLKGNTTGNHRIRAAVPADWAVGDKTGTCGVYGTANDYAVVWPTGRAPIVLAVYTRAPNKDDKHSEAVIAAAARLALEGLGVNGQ

How the values were obtained:
KPC-2 = biological target: T1, KPC-2 (Klebsiella pneumoniae, UniProt Q9F663); assay type: biochemical; details: 25 °C; for k cat: 10 mM HEPES pH 7.5, 150 mM NaCl, BSA, standard error in parentheses; for K M: pH 7.5, standard error in parentheses
T1 construct: made in house
Method: (§1) Antibiotic hydrolysis was measured at 25 °C in kinetics buffer (10 mM HEPES, pH 7.5 and 150 mM NaCl, 100 μg per mL bovine […] albumin (BSA)). […] Hydrolysis was followed using Greiner half area 96-well plates and a BMG CLARIOstar Plus microplate reader. GraphPad Prism 9.3.1 (GraphPad Software, La Jolla, CA, USA; https://www.graphpad.com) was used to calculate kinetic parameters. Initial rates of antibiotic hydrolysis measured across a range of antibiotic concentrations were used to calculate steady-state parameters according to the Michaelis–Menten equation.

KPC-2^G89D = biological target: T2, KPC-2^G89D (Klebsiella pneumoniae, UniProt Q9F663, G88D); test: Steady-state kinetics of β-lactam hydrolysis by KPC-2^G89D; assay type: biochemical; details: for k cat / K M: KPC-2^G89D, 25 °C, standard error in parentheses; for k cat: 10 mM HEPES pH 7.5, 150 mM NaCl, BSA; for K M: pH 7.5
T2 construct: made in house; host or cells: E. coli
Method: as §1

## CO/N=C(\C(=O)N[C@@H]1C(=O)N2C(C(=O)O)=C(COC(C)=O)CS[C@H]12)c1csc(N)n1 [Cefotaxime]
KPC-2
  k cat: 75.8 (6.61) s^−1
  K M: 199 (29) μM
KPC-2; listed as cefotaxime
  k cat: 76 s⁻¹
KPC-2^G89D
  k cat: 523 (176) s^−1
  K M: 2470 (942) μM

## CC(C)(O/N=C(\C(=O)N[C@@H]1C(=O)N2C(C(=O)[O-])=C(C[n+]3ccccc3)CS[C@H]12)c1csc(N)n1)C(=O)O [Ceftazidime]
KPC-2
  k cat: 1.9 (0.12) s^−1
  K M: 533 (69) μM
KPC-2; listed as ceftazidime
  k cat: 1.9 s⁻¹
KPC-2^G89D
  k cat: 2.7 (0.36) s^−1
  K M: 1340 (220) μM

## CC(=O)OCC1=C(C(=O)O)N2C(=O)[C@@H](NC(=O)Cc3cccs3)[C@H]2SC1 [Cephalothin]
KPC-2
  k cat: 112 (2.78) s^−1
  K M: 41.6 (3.41) μM
KPC-2^G89D; KPC-2^G89D compared to wild-type KPC-2
  decrease in the rate of turnover: 10 fold
KPC-2^G89D
  k cat: 10.8 (0.32) s^−1
  K M: 45.1 (3.71) μM
